From publication PMC11017395 (2024)
Like-named read-outs stand apart in the source and are kept apart here.

How the values were obtained:
[1] = system: P. berghei (Pb)-infected HepG2 cell; details: read-out: PbHepG2 IC50; liver stage; cited from earlier work
P. berghei [2] = details: P. berghei mouse model, oral 50 mg·kg^–1 once daily for 4 days; cited from earlier work
P. berghei [3] = details: in vivo, po
[4] = system: P. berghei (Pb)-infected HepG2 cell; assay: microbe, parasite or virus in culture; details: Plasmodium berghei, HepG2, read-out: liver-stage PbHepG2 IC50

FC(F)(F)c1noc(-c2ccc(CCN3CCC(Nc4nc5ccccc5[nH]4)CC3)cc2)n1 [Compound 1]
IC50 [1]: 0.49 µM | in vivo activity / reduction in parasitaemia (P. berghei [2]): 99% | mouse survival (P. berghei [2]): 14 days

Cc1ccc2[nH]c(NC3CCN(CCc4ccc(-c5noc(C(F)(F)F)n5)cc4)CC3)nc2n1 [Compound 10]
MSD (mean survival days) (P. berghei [3]): 6 days | activity (%), reduction in parasitemia (P. berghei [3]): 52%

COc1cc(NC(C)CCCN)c2ncccc2c1 (stereo not drawn) [primaquine, reference compound]
IC50 [4]: 6 µM
